From patent US20090253669A1, “Substituted Sulfonamide Compounds” (GRUENENTHAL GmbH, priority 2008, published 2009)

Sequences of proteins named here, by UniProt entry; tags and fusion partners are left off.
UniProt P35372, whole entry, looked up: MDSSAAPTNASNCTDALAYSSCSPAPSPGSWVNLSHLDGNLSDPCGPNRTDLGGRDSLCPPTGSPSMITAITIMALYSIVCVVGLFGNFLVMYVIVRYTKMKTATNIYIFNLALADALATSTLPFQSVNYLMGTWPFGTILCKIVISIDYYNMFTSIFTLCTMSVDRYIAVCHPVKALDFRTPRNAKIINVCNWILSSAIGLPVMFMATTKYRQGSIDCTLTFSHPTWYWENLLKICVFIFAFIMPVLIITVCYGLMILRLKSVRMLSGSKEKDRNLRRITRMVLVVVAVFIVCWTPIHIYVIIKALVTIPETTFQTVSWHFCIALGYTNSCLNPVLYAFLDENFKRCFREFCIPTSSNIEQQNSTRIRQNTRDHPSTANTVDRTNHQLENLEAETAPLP

target: human μ opiate receptor (Homo sapiens, UniProt P35372); test: [3H]-naloxone displacement, SPA, membranes of CHO-K1 cells; conditions: 1 μM test substance; inhibition of specific binding of 1 nmol/l [3H]-naloxone

Structure (SMILES) | μ opioid receptor [1 μM] % inhibition [%]
COc1cc(C)c(S(=O)(=O)N(C)CCOCC(=O)N2CCC(c3ccc(F)cc3)(N3CCN(C)CC3)CC2)c(C)c1 [Compound 42, N-(2-(2-(4-(4-fluorophenyl)-4-(4-methylpiperazin-1-yl)piperidin-1-yl)-2-oxoethoxy)ethyl)-4-methoxy-N,2,6-trimethylbenzenesulfonamide] | 9
COc1cc(C)c(S(=O)(=O)N(C)CCOCC(=O)N(C)CC2CCC(Cc3ccccc3)(N3CCCC3)CC2)c(C)c1 (centres unmarked) [Compound 45, N-((4-benzyl-4-(pyrrolidin-1-yl)cyclohexyl)methyl)-2-(2-(4-methoxy-N,2,6-trimethylphenylsulfonamido)ethoxy)-N-methylacetamide] | 15
COc1cc(C)c(S(=O)(=O)N2CCCCC2COCC(=O)N(C)CCC2CCC(CCc3ccccc3)(N3CCCC3)CC2)c(C)c1 (centres unmarked) [Compound 46, 2-((1-(4-methoxy-2,6-dimethylphenylsulfonyl)piperidin-2-yl)methoxy)-N-methyl-N-(2-(4-phenethyl-4-(pyrrolidin-1-yl)cyclohexyl)ethyl)acetamide] | 32
COc1cc(C)c(S(=O)(=O)N(C)CCOCC(=O)N(C)CC2CCC(CCc3ccccc3)(N3CCCC3)CC2)c(C)c1 (centres unmarked) [Compound 47, 2-(2-(4-methoxy-N,2,6-trimethylphenylsulfonamido)ethoxy)-N-methyl-N-((4-phenethyl-4-(pyrrolidin-1-yl)cyclohexyl)methyl)acetamide] | 39
COc1cc(C)c(S(=O)(=O)N(C)CCOCC(=O)N2CCC(CCc3ccccc3)(N(C)C)CC2)c(C)c1 [Compound 48, N-(2-(2-(4-(dimethylamino)-4-phenethylpiperidin-1-yl)-2-oxoethoxy)ethyl)-4-methoxy-N,2,6-trimethylbenzenesulfonamide] | 8
COc1cc(C)c(S(=O)(=O)N2CCCCC2COCC(=O)N2CCC(c3ccccc3)(N3CCN(C)CC3)CC2)c(C)c1 (centres unmarked) [Compound 49, 2-((1-(4-methoxy-2,6-dimethylphenylsulfonyl)piperidin-2-yl)methoxy)-1-(4-(4-methylpiperazin-1-yl)-4-phenylpiperidin-1-yl)ethanone] | 10
COc1cc(C)c(S(=O)(=O)N2CCCCC2COCC(=O)N2CCC(CCc3ccccc3)(N(C)C)CC2)c(C)c1 (centres unmarked) [Compound 50, 1-(4-(dimethylamino)-4-phenethylpiperidin-1-yl)-2-((1-(4-methoxy-2,6-dimethylphenylsulfonyl)piperidin-2-yl)methoxy)ethanone] | 20
COc1cc(C)c(S(=O)(=O)N2CCCCC2COCC(=O)N(C)CC2CCC(CCc3ccccc3)(N3CCCC3)CC2)c(C)c1 (centres unmarked) [Compound 51, 2-((1-(4-methoxy-2,6-dimethylphenylsulfonyl)piperidin-2-yl)methoxy)-N-methyl-N-((4-phenethyl-4-(pyrrolidin-1-yl)cyclohexyl)methyl)acetamide] | 46
COc1cc(C)c(S(=O)(=O)N(C)CCOCC(=O)N(C)CCC2CCC(CCc3ccccc3)(N(C)C)CC2)c(C)c1 (centres unmarked) [Compound 52, N-(2-(4-(dimethylamino)-4-phenethylcyclohexyl)ethyl)-2-(2-(4-methoxy-N,2,6-trimethylphenylsulfonamido)ethoxy)-N-methylacetamide] | 33
COc1cc(C)c(S(=O)(=O)N(C)CCOCC(=O)N(C)CCC2CCC(Cc3ccccc3)(N(C)C)CC2)c(C)c1 (centres unmarked) [Compound 53, N-(2-(4-benzyl-4-(dimethylamino)cyclohexyl)ethyl)-2-(2-(4-methoxy-N,2,6-trimethylphenylsulfonamido)ethoxy)-N-methylacetamide] | 56
COc1cc(C)c(S(=O)(=O)N(C)CCOCC(=O)N2CCC(c3ccccc3)(N(C)C)CC2)c(C)c1 [Compound 54, N-(2-(2-(4-(dimethylamino)-4-phenylpiperidin-1-yl)-2-oxoethoxy)ethyl)-4-methoxy-N,2,6-trimethylbenzenesulfonamide] | 42
CN1CCN(C2(CCc3ccccc3)CCN(C(=O)CC(NS(=O)(=O)c3ccc4ccccc4c3)c3ccccc3)CC2)CC1 (centres unmarked) [Compound 55, N-(3-(4-(4-methylpiperazin-1-yl)-4-phenethylpiperidin-1-yl)-3-oxo-1-phenylpropyl)naphthalene-2-sulfonamide] | 34
CN(CCC1CCC(Cc2ccccc2)(N2CCCC2)CC1)C(=O)CC(NS(=O)(=O)c1ccc2ccccc2c1)c1ccccc1 (centres unmarked) [Compound 56, N-(2-(4-benzyl-4-(pyrrolidin-1-yl)cyclohexyl)ethyl)-N-methyl-3-(naphthalene-2-sulfonamido)-3-phenylpropanamide] | 49
COc1cc(C)c(S(=O)(=O)N2CCCCC2COCC(=O)N2CCC(Cc3ccccc3)(N3CCN(C)CC3)CC2)c(C)c1 (centres unmarked) [Compound 57, 1-(4-benzyl-4-(4-methylpiperazin-1-yl)piperidin-1-yl)-2-((1-(4-methoxy-2,6-dimethylphenylsulfonyl)piperidin-2-yl)methoxy)ethanone] | 19
COc1cc(C)c(S(=O)(=O)N(C)CCOCC(=O)N(C)CCC2CCC(CCc3ccccc3)(N3CCCC3)CC2)c(C)c1 (centres unmarked) [Compound 58, 2-(2-(4-methoxy-N,2,6-trimethylphenylsulfonamido)ethoxy)-N-methyl-N-(2-(4-phenethyl-4-(pyrrolidin-1-yl)cyclohexyl)ethyl)acetamide] | 11
COc1cc(C)c(S(=O)(=O)N2CCCCC2COCC(=O)N(C)CCCC2CCC(CCc3ccccc3)(N3CCCC3)CC2)c(C)c1 (centres unmarked) [Compound 59, 2-((1-(4-methoxy-2,6-dimethylphenylsulfonyl)piperidin-2-yl)methoxy)-N-methyl-N-(3-(4-phenethyl-4-(pyrrolidin-1-yl)cyclohexyl)propyl)acetamide] | 10
COc1cc(C)c(S(=O)(=O)N2CCCCC2COCC(=O)N(C)CCC2CCC(c3ccccc3)(N3CCCC3)CC2)c(C)c1 (centres unmarked) [Compound 60, 2-((1-(4-methoxy-2,6-dimethylphenylsulfonyl)piperidin-2-yl)methoxy)-N-methyl-N-(2-(4-phenyl-4-(pyrrolidin-1-yl)cyclohexyl)ethyl)acetamide] | 79
CN(CCC1CCC(Cc2ccccc2)(N(C)C)CC1)C(=O)COCC1CCc2ccccc2N1S(=O)(=O)c1ccc(Cl)c(Cl)c1 (centres unmarked) [Compound 61, N-(2-(4-benzyl-4-(dimethylamino)cyclohexyl)ethyl)-2-((1-(3,4-dichlorophenylsulfonyl)-1,2,3,4-tetrahydroquinolin-2-yl)methoxy)-N-methylacetamide] | 24
COc1cc(C)c(S(=O)(=O)N2CCCCC2COCC(=O)N2CCC(c3ccccc3)(N3CCN(c4ccncc4)CC3)CC2)c(C)c1 (centres unmarked) [Compound 62, 2-((1-(4-methoxy-2,6-dimethylphenylsulfonyl)piperidin-2-yl)methoxy)-1-(4-phenyl-4-(4-(pyridin-4-yl)piperazin-1-yl)piperidin-1-yl)ethanone] | 61
COc1cc(C)c(S(=O)(=O)N(C)CCOCC(=O)N2CCC(Cc3ccccc3)(N(C)C)CC2)c(C)c1 [Compound 63, N-(2-(2-(4-benzyl-4-(dimethylamino)piperidin-1-yl)-2-oxoethoxy)ethyl)-4-methoxy-N,2,6-trimethylbenzenesulfonamide] | 28
